{"source": "paper PMC12355554", "about": "“Development of novel mitochondrial pyruvate carrier inhibitors for breast cancer treatment” (The Journal of Biological Chemistry, 2025)", "origin": "cited, not measured here", "details": "no reference given; cited from earlier work"}
{"compound": "NC(CO)(CO)CO", "note": "[Tris base]", "values": [{"measurement": "pKa", "value": 8.07}]}
